Hits are enriched below; roughly 1.8% of the tested compounds scored in any of these assays.
Cneo AK release: Cryptococcus neoformans cell lysis inducers, primary screen, AK release luminescence, single concentration. actives 0.2% (n = 360,000). AID 651654, 2012. C. neoformans lysis, adenylate kinase release luminescence, 4 h; normalised: neutral wells 0, clomiphene wells 100. lysis activity, % at 15 µM;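 active means mean lysis activity across replicates of at least 80%, whatever share of replicates individually reach that level; inactive means mean lysis activity below 80%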
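Test system: log-phase Cryptococcus neoformans yeast cells; Quantity: yeast cell density of 5 × 10^6 cells/mL; Buffer or medium: YPD; Doses: single compound concentration per well; Timing: 4 h at 37 °C static, read 1 h later; Measured by: AK luminescence; Read-out basis: lysis from increased AK signal; Control set: Clomiphene as positive control.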
Yeast UUG start-1: modulators of yeast start codon fidelity, primary screen, whole organism, S. cerevisiae, single point, plate reader; S. cerevisiae UUG-firefly luciferase reporter, luminescence/redox ratio; activity score, % at 18.7 µM; actives 0.13% (n = 350,000);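 active means replicate mean at a twofold rise or more, about +100% in these data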;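 further: firefly luciferase made from a UUG start codon reports start codon fidelity; reporter light over untreated wells divided by growth signal over untreated wells; some hits fall short of that in this replicate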
DENV2 CPE rescue: inhibitors of DENV2 cytopathic effect, primary screen, cell-based, plate reader, single concentration; CPE inhibition, % at 9.99 µM; actives 1.7% (n = 350,000); DENV2-infected cells, cytopathic effect rescue; AID 651640, 2012; in the data active means CPE inhibition above about 20%, passing the limit was not always enough; inconclusive means no clear call, values can overlap the other calls; tested in BHK-21 cells
E-sel inducer: E-selectin induction in HUVECs, primary screen, imaging, HUVEC, immunofluorescence imaging, single point; P16581; normalized: neutral wells 0, TNF-alpha wells 100; activation, % at 7.58 µM; actives 0.37% (n = 260,000);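 active means mean E-selectin-positive cell signal at least 10% of the positive control, reached in at least 60% of replicates, without over 20% cell loss; inconclusive means no rule given, readout overlaps actives, possibly toxicity-flagged; inactive means the rest, including those meeting only one limit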
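Read-out basis: % PE-positive cells; Test system: HUVEC primary endothelial cells; Technique: immunofluorescence imaging; Dosing: single-point compound dose.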
Yeast UUG start-2: enhancers of UUG start codon usage in yeast, dose response, S. cerevisiae, UUG firefly luciferase, cherry-pick, set 2; 540 tested, under 10 active; AID 652061, 2013; activation, % at 38 µM; luminescence, 4 h; 100% means double the DMSO signal; shares compounds with Yeast UUG start-1;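 active means signal increase whose fitted curve reaches an absolute level of 40 at a concentration under 10 µM; inactive means activity opposite to the expected increase, or the rest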
Of the large screens only hits and unclear results are named; the others gave an inactive call (follow-up assays come after a bar, where they were run).

COc1ccc(-c2ccc3c(c2)O[C@H](CN(C)C(=O)c2ccccc2F)[C@H](C)CN([C@@H](C)CO)S3(=O)=O)cc1	none
COc1ccc(-c2ccc3c(c2)O[C@H](CN(C)C(=O)c2ccccc2F)[C@H](C)CN([C@H](C)CO)S3(=O)=O)cc1	Yeast UUG start-1 25 | Yeast UUG start-2 inactive
C[C@H](CO)N1C[C@H](C)[C@@H](CN(C)C(=O)Nc2ccccc2F)Oc2cc(Br)ccc2S1(=O)=O	DENV2 CPE rescue inconclusive
COc1ccc(NC(=O)N(C)C[C@@H]2Oc3cc(-c4ccncc4)ccc3S(=O)(=O)N([C@@H](C)CO)C[C@@H]2C)cc1	none
COc1ccccc1NC(=O)N(C)C[C@@H]1Oc2cc(Br)ccc2S(=O)(=O)N([C@@H](C)CO)C[C@H]1C	Yeast UUG start-1 109 | Yeast UUG start-2 inactive
COc1ccc(NC(=O)N(C)C[C@@H]2Oc3cc(-c4ccncc4)ccc3S(=O)(=O)N([C@H](C)CO)C[C@@H]2C)cc1	Yeast UUG start-1 172 | Yeast UUG start-2 inactive
C[C@@H]1CN([C@H](C)CO)S(=O)(=O)c2ccc(C#CC3CC3)cc2O[C@H]1CN(C)Cc1ccc(F)cc1	none
Cc1ccc(S(=O)(=O)N[C@H]2CC[C@@H](CCNC(=O)c3ccc4c(c3)OCO4)O[C@@H]2CO)cc1	Yeast UUG start-1 170 | Yeast UUG start-2 inactive
CC(C)C(=O)Nc1cccc(N2CCN(CCCN3C(=O)C4CCCCN4C3=O)CC2)c1 (stereo not given)	Yeast UUG start-1 105 | Yeast UUG start-2 inactive
Cn1nnnc1SCC(=O)c1cccs1	none (no result: DENV2 CPE rescue, E-sel inducer)
Cc1cc(C)c(-n2nnnc2SCC(=O)c2cccs2)c(C)c1	Yeast UUG start-1 active (no result: E-sel inducer) | Yeast UUG start-2 inactive
C[C@@H]1CN([C@H](C)CO)C(=O)c2cccc(NC(=O)C3CCCCC3)c2O[C@H]1CN(C)C(=O)Nc1ccccc1	none
COCC(=O)N1CCN(c2ccc([N+](=O)[O-])cc2)CC1	Yeast UUG start-1 671 (no result: DENV2 CPE rescue, E-sel inducer) | Yeast UUG start-2 inactive
Cc1c(P(=O)(c2ccccc2)c2ccccc2)c2ccccc2n1C	Yeast UUG start-1 173 | Yeast UUG start-2 inactive
Cc1cc(N2CCOCC2)nc2ccc(NC(=O)C3CCCCC3)cc12	none
Cc1cc(N2CCOCC2)nc2ccc(NC(=S)N3CCCCC3C)cc12 (stereo not given)	Yeast UUG start-1 143 (no result: E-sel inducer) | Yeast UUG start-2 inactive
CC(C)CC#Cc1ccc2c(c1)O[C@H](CN(C)C(=O)Cc1ccccn1)[C@H](C)CN([C@H](C)CO)S2(=O)=O	none
CN(C)CCCN1C(=O)[C@@]2(Cc3ccccc31)c1ccccc1C(=O)N(Cc1ccccc1C(F)(F)F)[C@H]2c1ccc(CO)cc1	Yeast UUG start-1 173 (no result: E-sel inducer) | Yeast UUG start-2 inactive
COCCCN1C(=O)[C@@]2(Cc3ccccc31)c1ccccc1C(=O)N(Cc1ccccc1)[C@H]2c1ccc(CO)cc1	Yeast UUG start-1 169, DENV2 CPE rescue 23 (no result: E-sel inducer) | Yeast UUG start-2 inactive
CCCNC(=O)C[C@@H]1CC[C@H]2[C@@H](COC[C@H](O)CN2Cc2cccc(F)c2)O1	none
CCCNC(=O)C[C@@H]1CC[C@@H]2[C@H](COC[C@@H](O)CN2Cc2cccc(F)c2)O1	Yeast UUG start-1 107 | Yeast UUG start-2 inactive

Screening data from PubChem BioAssay.
